From PMC10287724, “Structural basis of the interaction between BCL9-Pygo and LDB-SSBP complexes in assembling the Wnt enhanceosome” (Nature Communications, 2023)
Changes are numbered by the printed parent chain. Names and notes keep the numbering of the source. Values belong to the molecule of their own block, whether it stands above or below them.

Key:
[1] = biological target: GST-hPygo2(58-84) (human) (UniProt Q9BRQ0); assay: BLI; GST-Pygo2(58-84) wt or mutant loaded on GST biosensors, quenched with free GST; wt or mutant MBP-LDB1-SSBP2 in solution (0.03-30 uM); Octet RED96, 30 °C; KD from steady-state analysis
[2] = biological target: GST-hPygo2(58-84) N76A (human) (UniProt Q9BRQ0); assay: as above
[3] = biological target: GST-hPygo2(58-84) E79A (human) (UniProt Q9BRQ0); assay: as above
[4] = biological target: GST-hPygo2(58-84) PPP63AAA (human) (UniProt Q9BRQ0); assay: as above
[5] = biological target: GST-hPygo2(58-84) D80A (human) (UniProt Q9BRQ0); assay: as above
[6] = biological target: T1, wt MBP-LDB1(56–285)-SSBP2(1–94) complex (human, UniProt Q86U70 56-285; P81877 1-94); assay: BLI
T1 chain 1: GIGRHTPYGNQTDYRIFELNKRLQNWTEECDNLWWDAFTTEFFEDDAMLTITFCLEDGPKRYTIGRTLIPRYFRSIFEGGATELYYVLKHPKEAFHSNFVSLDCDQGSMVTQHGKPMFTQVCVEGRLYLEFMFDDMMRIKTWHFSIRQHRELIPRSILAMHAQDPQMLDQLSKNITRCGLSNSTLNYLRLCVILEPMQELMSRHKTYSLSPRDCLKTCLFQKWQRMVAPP
T1 chain 2: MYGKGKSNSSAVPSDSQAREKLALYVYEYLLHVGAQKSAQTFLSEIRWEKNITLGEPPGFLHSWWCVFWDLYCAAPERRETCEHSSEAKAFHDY

[7] = biological target: T2, wt MBP-LDB1(56–285)-SSBP2(1–94) complex (human), Q86U70; assay: BLI; conditions: modification not given
T2 chain 1: T1 chain 1
T2 chain 2: T1 chain 2

[8] = biological target: wt MBP-LDB1(56–285)-SSBP2(1–94) complex (human, UniProt Q86U70 56-285; P81877 1-94); assay: BLI; Octet RED96; GST-Pygo2 (wt or mutant) on GST biosensors quenched with free GST, wt or mutant MBP-LDB1-SSBP2 in solution at 0.03-30 μM; free GST sensors as control; steady-state analysis; conditions: both partners purified
[9] = biological target: MBP-LDB1(56–285)-SSBP2(1–94) complex, LDB1 N237A (human, UniProt Q86U70 56-285; P81877 1-94, N237A); assay: pull-down; MBP pull-down: 5 μM wt or mutant MBP-LDB1-SSBP2 on dextrin sepharose, 20 μM GST-Pygo; 50 mM Tris-HCl pH 8.0, 100 mM NaCl, 10 mM DTT; room temperature 2 h; Coomassie; conditions: both partners purified
[10] = biological target: MBP-LDB1(56–285)-SSBP2(1–94) complex, LDB1 N241A (human, UniProt Q86U70 56-285; P81877 1-94, N241A); assay: as above; conditions: both partners purified
[11] = biological target: MBP-LDB1(56–285)-SSBP2(1–94) complex, LDB1 I248A (human, UniProt Q86U70 56-285; P81877 1-94, I248A); assay: as above; conditions: both partners purified
[12] = biological target: MBP-LDB1(56–285)-SSBP2(1–94) complex, LDB1 L245A (human, UniProt Q86U70 56-285; P81877 1-94, L245A); assay: as above; conditions: both partners purified
[13] = biological target: T3, MBP-LDB1(56–285)-SSBP2(1–94) complex, LDB1 L245A (human, UniProt Q86U70 56-285; P81877 1-94, L245A); assay: BLI
T3 sequence 1: T1 chain 1 with L190A
T3 sequence 2: T1 chain 2

[14] = biological target: T4, MBP-LDB1(56–285)-SSBP2(1–94) complex, LDB1 R244A (human, UniProt Q86U70 56-285; P81877 1-94, R244A); assay: BLI
T4 sequence 1: T1 chain 1 with R189A
T4 sequence 2: T1 chain 2

[15] = biological target: T5, MBP-LDB1(56–285)-SSBP2(1–94) complex, LDB1 I248A (human, UniProt Q86U70 56-285; P81877 1-94, I248A); assay: BLI
T5 sequence 1: T1 chain 1 with I193A
T5 sequence 2: T1 chain 2

[16] = biological target: T1, wt MBP-LDB1(56–285)-SSBP2(1–94) complex; assay: BLI

Kd [1]: 8.2 µM
Molecule: MBP-LDB1(56-285) R244A-SSBP2(1-94) complex (from UniProt Q86U70 56-285; P81877 1-94)

Kd [1]: 3.2 µM
Molecule: MBP-LDB1(56-285) L245A-SSBP2(1-94) complex (from UniProt Q86U70 56-285; P81877 1-94)

Kd [2]: 10 µM
Kd [3]: 0.57 µM
Kd [4]: 25 µM
Kd [5]: 2.1 µM
Molecule: MBP-LDB1(56-285)-SSBP2(1-94) complex (from UniProt Q86U70 56-285; P81877 1-94)

Kd [1]: 3.2 µM
Molecule: MBP-LDB1(56-285) I248A-SSBP2(1-94) complex (from UniProt Q86U70 56-285; P81877 1-94)

Kd [6]: 10 µM
Molecule: LTEFAPPPTPMVDHLVASAPFEDDFGA (domain or fragment) [GST-Pygo2 N76A]

Kd [6]: 2.1 µM
Molecule: LTEFAPPPTPMVDHLVASNPFEADFGA (domain or fragment) [GST-Pygo2 D80A]

Kd [6]: 25 µM
Molecule: LTEFAAAATPMVDHLVASNPFEDDFGA (domain or fragment) [GST-Pygo2 PPP > AAA]

Kd [7]: 0.45 µM
Molecule: GLQMKSPEKKRRKSNTQGPAYSHLTEFAPPPTPMVDHLVASNPFEDDFGA [Pygo2(35-84)]

Kd [8]: ~11 µM
B1: GST-Pygo2(66–81) (domain or fragment, human, UniProt Q9BRQ0 66-81, looked up)
chain: TPMVDHLVASNPFEDD
notes: Pygopus 2 (Pygo2), human, residues 66-81; also called shorter Pygo2 fragment lacking PPP; source: E. coli BL21 (DE3), purified (glutathione sepharose, Superdex 200 SEC); not shown: GST, N-terminal, kept

binding result [9]: binds
binding result [10]: binds
binding result [11]: binds
binding result [12]: binds
Kd [8]: ~0.45 µM
Kd [13]: 3.2 µM
Kd [14]: 8.2 µM
Kd [15]: 3.2 µM
Kd [16]: 0.69 µM
B2: GST-Pygo2(58–84) (domain or fragment, human, UniProt Q9BRQ0 58-84, looked up)
chain: LTEFAPPPTPMVDHLVASNPFEDDFGA
notes: Pygopus 2 (Pygo2), human, residues 58-84 (PPP cluster 63-65 and NPF motif 76-78); also called GST-tagged wt Pygo2; wt GST-Pygo fragment; source: E. coli BL21 (DE3), purified (glutathione sepharose, Superdex 200 SEC); not shown: GST, N-terminal, kept

Kd [6]: 0.57 µM
Molecule: LTEFAPPPTPMVDHLVASNPFADDFGA (domain or fragment) [GST-Pygo2 E79A]
